# According to patent publication US20230312524A1, “ALPHA1A-ADRENERGIC RECEPTOR AGONISTS AND METHODS OF USE” (CuraSen Therapeutics, Inc., priority 2020, published 2023):
# Amino acid sequences for entries named in this document (tags omitted).
# UniProt P35348, whole entry: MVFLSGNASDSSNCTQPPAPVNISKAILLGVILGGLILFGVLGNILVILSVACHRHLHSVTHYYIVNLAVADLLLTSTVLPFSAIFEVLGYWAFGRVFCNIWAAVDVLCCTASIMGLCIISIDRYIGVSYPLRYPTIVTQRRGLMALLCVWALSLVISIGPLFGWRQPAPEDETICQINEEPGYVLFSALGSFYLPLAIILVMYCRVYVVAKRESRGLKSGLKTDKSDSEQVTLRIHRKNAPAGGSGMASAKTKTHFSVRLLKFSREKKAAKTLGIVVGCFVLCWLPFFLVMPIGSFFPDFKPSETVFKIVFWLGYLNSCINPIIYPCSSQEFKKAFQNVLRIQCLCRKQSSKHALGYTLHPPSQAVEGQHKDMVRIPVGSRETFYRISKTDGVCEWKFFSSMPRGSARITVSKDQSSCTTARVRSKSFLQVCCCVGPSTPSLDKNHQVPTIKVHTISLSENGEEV
# Molecular target: α1A-ARS (Homo sapiens, UniProt P35348)
# Assay: Calcium flux assay (Calcium 6 dye) in cells expressing an α1-AR
# Conditions: for Average Emax: maximum effect relative to full agonist epinephrine; for Average PEC50: mean of at least three experiments
SMILES,Average Emax,Average PEC50
Cc1cc(CC2=NCCN2)cc(OC(F)(F)F)c1,A (A > 61%),B (B = 8.00-6.01)
Clc1cccc(CC2=NCCN2)c1C1CCCC1,B (B = 21-60%),C (C ≤ 6.00)
